Literature values in paper PMC10531749.

Sequences of proteins named here, by UniProt entry; tags and fusion partners are left off. Residues count along the entry.
UniProt P17931, 114-250: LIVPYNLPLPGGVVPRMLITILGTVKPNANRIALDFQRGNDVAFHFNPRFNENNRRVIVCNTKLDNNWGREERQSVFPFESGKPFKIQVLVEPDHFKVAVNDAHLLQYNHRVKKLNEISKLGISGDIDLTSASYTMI
UniProt P17931, 2-250: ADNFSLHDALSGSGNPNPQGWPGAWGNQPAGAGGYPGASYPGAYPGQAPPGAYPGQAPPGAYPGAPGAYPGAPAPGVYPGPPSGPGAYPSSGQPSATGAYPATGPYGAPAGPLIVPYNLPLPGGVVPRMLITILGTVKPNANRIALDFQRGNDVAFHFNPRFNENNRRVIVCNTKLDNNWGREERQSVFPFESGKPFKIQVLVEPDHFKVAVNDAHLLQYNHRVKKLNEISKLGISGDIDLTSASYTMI
UniProt P48061, 22-89: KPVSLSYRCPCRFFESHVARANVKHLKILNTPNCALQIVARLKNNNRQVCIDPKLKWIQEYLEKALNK

How the values were obtained:
[1] = target: Galectin-3 CRD (Homo sapiens) (UniProt P17931); experiment: surface plasmon resonance
[2] = target: Galectin-3 (Homo sapiens) (UniProt P17931); experiment: surface plasmon resonance

- Kd [1]: 0.034 µM
- Kd [2]: 0.08 µM
Substance: CXCL12 (from UniProt P48061)
